Drawing on ChEMBL document CHEMBL4024727, “Synthesis and antimycobacterial screening of new thiazolyl-oxazole derivatives” (Eur J Med Chem, 2017), this text covers selectivity ratio for one molecule.

Data set [1] is described as follows: Selectivity index, ratio of GI50 for human HeLa cells to MIC for Mycobacterium tuberculosis H37Ra ATCC 25177 dormant stage. The class given is toxicity, cell-based. Conditions: read-out: Selectivity Index.
A short description of data set [2]: Selectivity index, ratio of GI50 for human HeLa cells to MIC for Mycobacterium bovis BCG ATCC 35743 dormant stage. In kind it is toxicity, cell-based. Conditions: read-out: Selectivity Index.

Regarding `CO[C@H]1/C=C/O[C@@]2(C)Oc3c(C)c(O)c4c(O)c(c(/C=N/N5CCN(C)CC5)c(O)c4c3C2=O)NC(=O)/C(C)=C\C=C\[C@H](C)[C@H](O)[C@@H](C)[C@@H](O)[C@@H](C)[C@H](OC(C)=O)[C@@H]1C` [RIFAMPIN], the selectivity ratio in data set [1] was found to be 133; in data set [2], 123.
